# Experiments:
# Experiment in all cases: SIMPL ELISA, bait-IN/prey-CIC
# [1] = biological target: DDIT3 (prey, CIC format) (human) (UniProt P35638)
# [2] = biological target: CKS1B (prey, CIC format) (human) (UniProt P61024)
# [3] = biological target: ARFIP2 (prey, CIC format) (human) (UniProt P53365)
# [4] = biological target: BTRC (prey, CIC format) (human) (UniProt Q9Y297)
# [5] = biological target: S100B (prey, CIC format) (human) (UniProt P04271)
# [6] = biological target: RAN (prey, CIC format) (human) (UniProt P62826)
substance,measurement,setting,value
"CDK2 (bait, IN format) (from UniProt P24941 1-298)",PLU mean,[1],0.275
same,PLU mean,[2],1.88
"RAC1 (bait, IN format) (from UniProt P63000 1-192)",PLU mean,[3],0.672
same,PLU mean,[4],0.256
"S100A6 (bait, IN format) (from UniProt P06703 1-90)",PLU mean,[5],0.217
same,PLU mean,[6],0.105

# From patent US20220229068A1, “DETECTION OF PROTEIN TO PROTEIN INTERACTIONS” (THE GOVERNING COUNCIL OF THE UNIVERSITY OF TORONTO, priority 2019, published 2022)
